By IC50 is commonly meant the midpoint of a concentration-inhibition curve.

Protein sequences, listed by entry. Tags and fused reporters are not part of them.
UniProt Q00987, whole entry: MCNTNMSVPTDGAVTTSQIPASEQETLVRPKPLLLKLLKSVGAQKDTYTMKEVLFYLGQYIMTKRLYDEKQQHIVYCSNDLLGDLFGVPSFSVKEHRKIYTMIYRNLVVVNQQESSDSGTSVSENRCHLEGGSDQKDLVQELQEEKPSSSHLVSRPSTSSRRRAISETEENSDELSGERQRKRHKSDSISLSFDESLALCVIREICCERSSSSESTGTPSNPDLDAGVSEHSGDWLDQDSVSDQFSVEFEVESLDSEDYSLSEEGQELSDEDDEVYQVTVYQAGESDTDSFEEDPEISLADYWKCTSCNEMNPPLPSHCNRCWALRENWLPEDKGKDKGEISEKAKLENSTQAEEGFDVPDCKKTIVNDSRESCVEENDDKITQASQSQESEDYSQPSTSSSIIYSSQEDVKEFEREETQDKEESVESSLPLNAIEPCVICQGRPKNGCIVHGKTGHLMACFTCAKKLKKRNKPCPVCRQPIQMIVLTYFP

The target of the assay is E3 ubiquitin-protein ligase Mdm2 (Homo sapiens, UniProt Q00987). In words: Inhibition of Mdm2 -p53 protein interaction by ELISA.

`O=C1c2ccccc2C(O[C@H]2CC[C@H](O)CC2)(c2ccc(Cl)cc2)N1Cc1ccc([N+](=O)[O-])cc1` (mixture of isomers) showed an IC50 of 390 nM.

The values are drawn from ChEMBL document CHEMBL1687910, “Isoindolinone inhibitors of the murine double minute 2 (MDM2)-p53 protein-protein interaction: structure-activity studies leading to improved potency” (J Med Chem, 2011).
